Read-outs that look alike come from different tables or passages of the source.

Assay [1] addresses T1, recombinant murine iNOS (Mus musculus, UniProt P29477).
T1 construct: made in house; host or cells: E. coli
Nature of the assay: NOS inhibition, hemoglobin capture assay, iNOS. The conditions noted are these: at least duplicate. Type of assay: biochemical.

Assay [2] deals with recombinant bovine eNOS (Bos taurus, UniProt P29473). The conditions noted are these: for decrease in potency for eNOS: 7-9 compared with descarboxamide analogues 4-6; for Ki: at least duplicate.
Assay [3] concerns the target T2, recombinant rat nNOS (Rattus norvegicus, UniProt P29476).
T2 construct: made in house; host or cells: E. coli
Nature of the assay: NOS inhibition, hemoglobin capture assay, nNOS. In kind it is biochemical. The settings on record: Table 2; for Ki: Ki calculated from the measured IC50 values, at least duplicate; for Selectivity ENOS/nNOS: ratio of Ki (eNOS) to Ki (nNOS); for Selectivity iNOS/nNOS: ratio of Ki (iNOS) to Ki (nNOS).

Setting [4] is: read-out: Ki ENOS, Table 1, SD ±8-12%, 10 μM L-arginine.
Where [5] appears, read: Table 2, Ki calculated from the measured IC50 values.
Setting [6] is: read-out: Ki eNOS, Table 2, Ki calculated from the measured IC50 values.

Turning to `N=C(NCCC[C@H](N)CNCCCN)N[N+](=O)[O-]` [Compound 8, (4S)-N-(4-Amino-5-[aminopropyl]aminopentyl)-N′-nitroguanidine], the inhibition constant (Ki) (in general, the dissociation constant of the complex between target and ligand, obtained from inhibition or displacement) in assay [1] (Table 1, SD ±8-12%, 10 μM L-arginine) came out at 73 µM; in assay [2] (setting [4]) it was 524 µM. Moreover, the “decrease in potency for eNOS” value in assay [2] is given as 2.5 fold.

As for `N=C(NCCC[C@H](N)CNCCCCN)N[N+](=O)[O-]` [Compound 9, (4S)-N-(4-Amino-5-[aminobutyl]aminopentyl)-N′-nitroguanidine], the “decrease in potency for eNOS” value in assay [2] was ~6 fold. Moreover, the Ki in assay [2] (setting [4]) turned out to be 411 µM.

Turning to `N=C(NCCC[C@H](N)CNCc1ccccc1N)N[N+](=O)[O-]` [Compound 17, N-(4S)-[4-Amino-5-(2-aminobenzylamino)pentyl]-N′-nitroguanidine], in assay [3], the Ki was 20.3 µM, the “Selectivity ENOS/nNOS” value is 4.24 and the “Selectivity iNOS/nNOS” value turned out to be 4.25. Further, the Ki in assay [1] (setting [5]) was 86.3 µM. In assay [2] (setting [6]), the Ki is 86.1 µM.

Consider `N=C(NCCC[C@H](N)CNCc1cccc(N)c1)N[N+](=O)[O-]` [Compound 18, N-(4S)-[4-Amino-5-(3-aminobenzylamino)pentyl]-N′-nitroguanidine], for which the Ki in assay [1] (setting [5]) was 572 µM; in assay [2] (setting [6]), 185 µM.

Consider `N=C(NCCC[C@H](N)CNCc1ccc(N)cc1)N[N+](=O)[O-]` [Compound 19, N-(4S)-[4-Amino-5-(4-aminobenzylamino)pentyl]-N′-nitroguanidine], for which, in assay [3], the Ki is 1.6 µM, the “Selectivity ENOS/nNOS” value was determined as 189 and the “Selectivity iNOS/nNOS” value was determined as 204. Besides, in assay [1] (setting [5]), the Ki is 326 µM. The Ki in assay [2] (setting [6]) is 303 µM.

With `N=C(NCCC[C@H](N)CNc1cccc(CCN)c1)N[N+](=O)[O-]` [Compound 27, N-(4S)-{4-Amino-5-[3-(2-aminoethyl)phenylamino]pentyl}-N′-nitroguanidine], in assay [3], the Ki was 2.21 µM, the “Selectivity ENOS/nNOS” value is on record as 45.2 and the “Selectivity iNOS/nNOS” value is 118. Moreover, the Ki in assay [1] (setting [5]) is 260 µM. The Ki in assay [2] (setting [6]) is 100 µM.

Turning to `N=C(NCCC[C@H](N)CNc1ccc(CCN)cc1)N[N+](=O)[O-]` [Compound 28, N-(4S)-{4-Amino-5-[4-(2-aminoethyl)phenylamino]pentyl}-N′-nitroguanidine], the results for the Ki in assay [1] (setting [5]) and in assay [2] (setting [6]) were 360 µM and 414 µM, respectively.

`N=C(NCCC[C@H](N)CNCc1ccccn1)N[N+](=O)[O-]` [Compound 29, N-(4S)-{4-Amino-5-[(pyridin-2-yl)methyl]aminopentyl}-N′-nitroguanidine]: the values for the Ki in assay [1] (setting [5]) and in assay [2] (setting [6]) were 154 µM and 443 µM, respectively.

With `N=C(NCCC[C@H](N)CNCc1ccncc1)N[N+](=O)[O-]` [Compound 31, N-(4S)-{4-Amino-5-[(pyridin-4-yl)methyl]aminopentyl}-N′-nitroguanidine], the Ki in assay [2] (setting [6]) was 589 µM.

For `N=C(NCCC[C@H](N)CNCCc1cccnc1)N[N+](=O)[O-]` [Compound 33, N-(4S)-{4-Amino-5-[(2-pyridin-3-yl)ethyl]aminopentyl}-N′-nitroguanidine], the Ki in assay [1] (setting [5]) is 178 µM.

Take `N=C(NCCC[C@H](N)CNCCc1ccncc1)N[N+](=O)[O-]` [Compound 34, N-(4S)-{4-Amino-5-[(2-pyridin-4-yl)ethylamino]pentyl}-N′-nitroguanidine]: the Ki in assay [1] (setting [5]) was 395 µM.

Source of the values: patent publication US6803486B2, “Selective neuronal nitric oxide synthase inhibitors” (Northwestern University, priority 2001, dated 2004).
